Patent US6110962A, “11-aryl-benzo[B]naphtho[2,3-D]furans and 11-aryl-benzo[B]naphtho[2,3-D]thiophenes useful in the treatment of insulin resistance and hyperglycemia” (American Home Products Corporation, priority 1999, dated 2000)

Sequences of proteins named here, by UniProt entry; tags and fusion partners are left off. A change or cut given only in a name is not applied to a line headed by its entry.
UniProt P18031: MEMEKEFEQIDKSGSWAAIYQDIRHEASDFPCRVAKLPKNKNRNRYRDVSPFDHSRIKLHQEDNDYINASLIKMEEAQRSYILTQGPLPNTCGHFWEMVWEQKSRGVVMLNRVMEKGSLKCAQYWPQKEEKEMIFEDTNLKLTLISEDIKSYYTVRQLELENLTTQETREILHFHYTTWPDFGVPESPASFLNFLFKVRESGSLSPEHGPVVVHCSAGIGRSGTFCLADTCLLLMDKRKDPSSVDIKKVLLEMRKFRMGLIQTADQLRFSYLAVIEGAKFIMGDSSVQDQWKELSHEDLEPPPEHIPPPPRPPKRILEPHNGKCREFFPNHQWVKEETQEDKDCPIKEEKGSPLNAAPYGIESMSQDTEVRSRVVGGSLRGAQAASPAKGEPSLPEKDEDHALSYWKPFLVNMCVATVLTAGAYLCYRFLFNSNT

Molecular target: Human recombinant PTP1B (Homo sapiens, UniProt P18031)
Test: Inhibition of tri-phosphorylated insulin receptor dodecaphosphopeptide dephosphorylation by hPTP1B
Assay type: biochemical

Substance Ammonium molybdate tetrahydrate has an IC50 of 8.7 µM.
